Values quoted from earlier work as cited in patent publication US20240173233A1, “COSMETIC SACHET FOR REDUCING AGE-RELATED SYMPTOMS IN HUMAN SKIN” (Bloo Pharmapeutica Inc., priority 2022, published 2024).

Test system: in vitro reconstructed 3D human skin model
Conditions: even at high concentrations

## CN(C)c1ccc2nc3ccc(N(C)C)cc3[s+]c2c1.[Cl-] [methylene blue, [7-(dimethylamino)phenothiazine-3-ylidene]-dimethylazanium chloride]
  skin irritation: did not cause irritation even at high concentrations
